The values that follow come from patent publication US10336775B2 (Asceneuron SA, priority 2014, dated 2019).

By UniProt entry, the sequences of proteins in these tests, tags left out. Where a name states a change or a piece, a line headed by the entry shows the natural chain unless it says otherwise.
UniProt O60502: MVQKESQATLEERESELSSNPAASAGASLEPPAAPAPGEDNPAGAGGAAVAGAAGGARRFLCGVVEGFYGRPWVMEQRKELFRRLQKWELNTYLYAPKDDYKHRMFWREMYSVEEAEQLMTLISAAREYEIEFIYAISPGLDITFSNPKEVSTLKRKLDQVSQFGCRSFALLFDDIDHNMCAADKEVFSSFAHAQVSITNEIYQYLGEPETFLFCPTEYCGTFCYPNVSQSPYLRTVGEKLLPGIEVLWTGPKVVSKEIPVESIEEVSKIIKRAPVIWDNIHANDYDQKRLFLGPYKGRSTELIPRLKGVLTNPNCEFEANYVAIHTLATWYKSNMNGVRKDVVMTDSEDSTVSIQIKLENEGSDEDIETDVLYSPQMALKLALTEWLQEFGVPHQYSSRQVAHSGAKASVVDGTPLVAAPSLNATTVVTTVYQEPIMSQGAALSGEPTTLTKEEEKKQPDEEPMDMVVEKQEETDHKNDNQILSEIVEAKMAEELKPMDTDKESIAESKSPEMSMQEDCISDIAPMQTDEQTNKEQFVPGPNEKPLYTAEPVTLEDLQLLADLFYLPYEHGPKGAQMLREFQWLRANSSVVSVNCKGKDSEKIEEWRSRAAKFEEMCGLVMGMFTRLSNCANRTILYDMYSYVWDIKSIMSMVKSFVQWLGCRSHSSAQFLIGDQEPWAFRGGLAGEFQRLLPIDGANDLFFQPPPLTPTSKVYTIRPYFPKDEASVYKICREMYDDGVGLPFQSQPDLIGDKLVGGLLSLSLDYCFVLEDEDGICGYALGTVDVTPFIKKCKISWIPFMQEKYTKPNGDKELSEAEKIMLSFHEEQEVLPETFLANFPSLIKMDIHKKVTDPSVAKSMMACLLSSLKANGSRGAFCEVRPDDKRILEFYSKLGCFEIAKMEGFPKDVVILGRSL

One may read the IC50 as the concentration at which inhibition is half-maximal. A lower IC50 goes with higher potency.

The target of this assay is His-Tagged hOGA (human O-GlcNAcase) (Homo sapiens (Human), UniProt O60502). Put plainly: Human O-GlcNAcase enzyme inhibition assay (Example B01). The format is biochemical. As to conditions: OGA enzyme inhibition assay; activity range classes defined in μM.

Substance “N-(5-(4-(1-(4-chloro-3-methoxyphenyl)ethyl)piperazin-1-yl)-1,3,4-thiadiazol-2-yl)acetamide [Example 88]” gave an IC50 of 1 to 10 µM.
